The target of assay [1] is Hepatocyte growth factor receptor (Homo sapiens, UniProt P08581). Briefly: Inhibition cMet.
Assay [2] concerns the target Fibroblast growth factor receptor 2 (Homo sapiens, UniProt P21802). Briefly: Inhibition FGFR2.

Sequences of proteins named here, by UniProt entry; tags and fusion partners are left off. A change or cut given only in a name is not applied to a line headed by its entry.
UniProt P08581: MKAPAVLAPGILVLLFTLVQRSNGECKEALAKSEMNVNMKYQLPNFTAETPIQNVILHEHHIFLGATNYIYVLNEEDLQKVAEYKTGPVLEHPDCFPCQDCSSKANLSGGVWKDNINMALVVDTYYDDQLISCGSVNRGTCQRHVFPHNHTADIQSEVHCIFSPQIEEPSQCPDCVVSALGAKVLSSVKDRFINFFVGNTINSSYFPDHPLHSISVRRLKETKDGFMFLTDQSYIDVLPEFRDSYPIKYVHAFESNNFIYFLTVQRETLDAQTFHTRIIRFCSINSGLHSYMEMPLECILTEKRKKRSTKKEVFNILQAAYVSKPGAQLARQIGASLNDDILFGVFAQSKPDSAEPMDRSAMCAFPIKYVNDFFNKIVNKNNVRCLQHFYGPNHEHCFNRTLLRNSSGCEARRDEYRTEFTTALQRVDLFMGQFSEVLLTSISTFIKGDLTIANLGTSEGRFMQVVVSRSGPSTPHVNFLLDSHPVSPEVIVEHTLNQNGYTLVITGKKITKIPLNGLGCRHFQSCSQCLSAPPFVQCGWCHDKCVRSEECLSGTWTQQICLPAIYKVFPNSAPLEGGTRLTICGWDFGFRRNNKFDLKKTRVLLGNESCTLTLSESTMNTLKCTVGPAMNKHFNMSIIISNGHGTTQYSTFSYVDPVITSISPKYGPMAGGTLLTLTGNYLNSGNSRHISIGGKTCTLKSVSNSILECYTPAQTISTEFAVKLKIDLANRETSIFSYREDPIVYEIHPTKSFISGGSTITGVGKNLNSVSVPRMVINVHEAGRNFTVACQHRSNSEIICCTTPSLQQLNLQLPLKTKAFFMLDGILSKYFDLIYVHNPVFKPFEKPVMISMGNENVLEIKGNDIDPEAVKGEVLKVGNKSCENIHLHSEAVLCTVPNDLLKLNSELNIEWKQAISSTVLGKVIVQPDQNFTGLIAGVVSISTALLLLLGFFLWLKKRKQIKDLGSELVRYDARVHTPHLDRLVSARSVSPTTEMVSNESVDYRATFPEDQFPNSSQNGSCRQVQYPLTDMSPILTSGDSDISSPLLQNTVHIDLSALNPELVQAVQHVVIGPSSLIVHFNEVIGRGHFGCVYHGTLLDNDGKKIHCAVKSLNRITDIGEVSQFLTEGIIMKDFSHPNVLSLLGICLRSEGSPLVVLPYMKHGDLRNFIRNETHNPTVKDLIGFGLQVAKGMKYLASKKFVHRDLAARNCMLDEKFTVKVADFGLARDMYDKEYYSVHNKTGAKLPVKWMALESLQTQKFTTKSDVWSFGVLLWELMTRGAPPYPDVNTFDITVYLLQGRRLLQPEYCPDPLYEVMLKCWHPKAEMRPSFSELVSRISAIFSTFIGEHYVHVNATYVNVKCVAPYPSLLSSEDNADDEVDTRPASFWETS
UniProt P21802, whole entry: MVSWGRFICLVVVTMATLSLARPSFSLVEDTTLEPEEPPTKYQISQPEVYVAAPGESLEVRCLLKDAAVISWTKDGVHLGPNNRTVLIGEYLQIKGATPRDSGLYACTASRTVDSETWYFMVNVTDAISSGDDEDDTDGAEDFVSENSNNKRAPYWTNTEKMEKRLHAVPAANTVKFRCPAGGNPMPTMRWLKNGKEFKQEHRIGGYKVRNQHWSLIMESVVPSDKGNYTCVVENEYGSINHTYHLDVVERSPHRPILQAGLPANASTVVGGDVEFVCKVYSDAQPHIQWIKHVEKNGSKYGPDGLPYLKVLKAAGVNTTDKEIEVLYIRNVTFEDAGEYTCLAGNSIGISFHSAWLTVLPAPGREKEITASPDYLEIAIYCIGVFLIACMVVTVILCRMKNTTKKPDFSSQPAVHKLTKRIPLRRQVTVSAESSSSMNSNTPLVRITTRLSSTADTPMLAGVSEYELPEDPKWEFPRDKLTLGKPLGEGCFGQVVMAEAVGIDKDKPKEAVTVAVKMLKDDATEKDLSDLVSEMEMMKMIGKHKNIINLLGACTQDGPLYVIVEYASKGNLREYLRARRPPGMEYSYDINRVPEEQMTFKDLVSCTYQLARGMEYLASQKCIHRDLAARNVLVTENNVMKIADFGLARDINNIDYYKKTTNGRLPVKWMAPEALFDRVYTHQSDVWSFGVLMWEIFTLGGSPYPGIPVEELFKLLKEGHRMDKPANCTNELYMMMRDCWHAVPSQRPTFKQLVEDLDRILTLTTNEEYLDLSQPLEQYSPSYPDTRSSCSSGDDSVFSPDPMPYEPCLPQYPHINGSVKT

In general, IC50 refers to the point on the concentration scale where inhibition reaches its midpoint.

`NS(=O)(=O)c1ccc(Nc2nc(N3CCOCC3)nc3[nH]cnc23)cc1`: the results for the IC50 in assay [1] and in assay [2] were 10 µM and above 10 µM, respectively.

(Values after ChEMBL document CHEMBL1177660, “Discovery of novel purine derivatives with potent and selective inhibitory activity against c-Src tyrosine kinase” (Bioorg Med Chem, 2010).)
